The values that follow come from patent publication US7169801B2, “Histone deacetylase inhibitors” (Takeda San Diego, Inc., priority 2003, dated 2007).

By UniProt entry, the sequences of proteins in these tests, tags left out. Chains listed by the source or under a name are the forms on record and can include a tag or linker.
UniProt Q9BY41, with tags, fused parts or gaps T69A: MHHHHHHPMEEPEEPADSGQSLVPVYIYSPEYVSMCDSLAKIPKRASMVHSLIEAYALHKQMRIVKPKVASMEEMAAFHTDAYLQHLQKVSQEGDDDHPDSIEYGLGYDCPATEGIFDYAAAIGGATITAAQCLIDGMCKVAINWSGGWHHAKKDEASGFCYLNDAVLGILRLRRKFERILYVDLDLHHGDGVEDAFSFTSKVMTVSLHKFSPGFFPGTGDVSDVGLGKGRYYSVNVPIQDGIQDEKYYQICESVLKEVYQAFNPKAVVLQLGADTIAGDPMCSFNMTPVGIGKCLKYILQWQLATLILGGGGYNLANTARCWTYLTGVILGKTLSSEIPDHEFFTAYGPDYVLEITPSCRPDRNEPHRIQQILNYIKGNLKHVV

In this assay the target is HDAC8 (Homo sapiens, UniProt Q9BY41, T69A). The assay can be described thus: biochemical.

The structures appear in SMILES notation.

For the molecule `O=C(CCCCCCC(=O)Nc1ccccc1)NO` [SAHA, suberanilohydroxamic acid], the IC50 (usually the concentration that inhibits the measured activity by half) is 242 nM.
